# According to PMC5862601 (Oncotarget, 2018):
# The chains behind the UniProt entries cited, without tags or fusion partners.
# UniProt P29275, whole entry: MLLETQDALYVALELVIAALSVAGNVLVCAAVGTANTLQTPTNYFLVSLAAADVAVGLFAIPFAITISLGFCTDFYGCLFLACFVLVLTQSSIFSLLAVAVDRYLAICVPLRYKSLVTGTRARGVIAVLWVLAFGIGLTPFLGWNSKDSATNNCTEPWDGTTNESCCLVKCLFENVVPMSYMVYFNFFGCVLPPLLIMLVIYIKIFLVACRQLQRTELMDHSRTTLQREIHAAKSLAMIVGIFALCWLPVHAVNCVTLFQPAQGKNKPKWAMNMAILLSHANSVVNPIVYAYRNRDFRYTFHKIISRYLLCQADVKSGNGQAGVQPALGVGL
# Legend:
# HA-tagged human A2AAR = HA-tagged human A2AAR (Homo sapiens, UniProt P29274); assay: Radioligand affinity at CHO-HA-A2A; type: binding; details: read-out: KD ± SEM, homologous competition, tested as the radiolabelled form
# human A2AAR = human A2AAR (Homo sapiens, UniProt P29274); assay: Radioligand affinity at HEK or CHO-A2A; type: binding; details: read-out: KD ± SEM, saturation, tested as the radiolabelled form
# human A2BAR = human A2BAR (Homo sapiens, UniProt P29275); assay: Radioligand affinity at HEK or CHO-A2B; type: binding; details: tested as the radiolabelled form
# [1] = molecular target: A2A and A2BARs in intact primary human lymphocytes; assay: Radioligand affinity at intact primary human T-lymphocytes, stimulated with phytohemagglutinin; type: binding; details: read-out: KD ± SEM; T-Lymphocytes stimulated (A2A > A2B); intact cells; homologous competition; tested as the radiolabelled form
# [2] = tested on: CHO-K1 cell membranes (non-transfected); assay: Radioligand affinity (saturation or homologous competition) at CHO cells; details: tested as the radiolabelled form
# [3] = molecular target: A2A and A2BARs in intact primary human lymphocytes; assay: Radioligand affinity at intact primary human T-lymphocytes, unstimulated; type: binding; details: T-Lymphocytes unstimulated (A2A > A2B), intact cells, homologous competition, tested as the radiolabelled form
compound,measurement,setting,value
"C#CCn1c(=O)c2c(nc(C=Cc3cccc(OC)c3)n2C)n(CCCO)c1=O [MSX-2, 3-(3-hydroxypropyl)-7-methyl-8-(m-methoxystyryl)-1-propargylxanthine]",Kd,HA-tagged human A2AAR,22 nM
same,Kd,human A2AAR,7.29 nM
same,KD ± SEM,human A2BAR,No binding
same,Kd,[1],2.58 nM
same,KD ± SEM,[2],No binding
same,KD ± SEM,[3],High affinity binding
same,Kd,[3]; read-out: KD ± SEM,3.57 nM
